Target: Cholinesterase (Homo sapiens, UniProt P06276)
Assay: Inhibition of human plasma BChE pretreated for 30 mins by Ellman technique
Assay type: cell-free

The chains behind the UniProt entries cited, without tags or fusion partners.
UniProt P06276, whole entry: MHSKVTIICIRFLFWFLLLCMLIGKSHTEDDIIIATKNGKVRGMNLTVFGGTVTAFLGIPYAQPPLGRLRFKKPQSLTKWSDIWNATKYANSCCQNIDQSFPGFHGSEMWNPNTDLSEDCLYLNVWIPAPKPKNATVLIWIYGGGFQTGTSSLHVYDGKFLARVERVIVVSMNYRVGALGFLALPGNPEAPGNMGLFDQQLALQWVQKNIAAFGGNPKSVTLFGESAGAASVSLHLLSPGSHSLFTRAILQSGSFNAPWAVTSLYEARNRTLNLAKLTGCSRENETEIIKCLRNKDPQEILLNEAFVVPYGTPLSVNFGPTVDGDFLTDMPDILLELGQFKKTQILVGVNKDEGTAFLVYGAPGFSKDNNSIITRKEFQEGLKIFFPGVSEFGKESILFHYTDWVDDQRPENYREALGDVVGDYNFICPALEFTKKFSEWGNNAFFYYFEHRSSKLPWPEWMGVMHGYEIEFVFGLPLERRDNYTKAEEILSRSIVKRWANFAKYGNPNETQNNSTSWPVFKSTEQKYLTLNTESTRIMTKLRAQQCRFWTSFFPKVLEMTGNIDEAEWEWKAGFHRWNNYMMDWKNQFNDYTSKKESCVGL

Structure (SMILES): CC(C)c1ccc(NC(=O)Oc2ccc3c(c2)[C@]2(C)CCN(C)C2N3C)cc1 (stereo partly specified)
- IC50: 51 nM
